Measurements as given in patent publication US9427415B2, “Methods and compositions for modifying sensorial perception” (The Procter & Gamble Company, priority 2014, dated 2016).

The chains behind the UniProt entries cited, without tags or fusion partners.
UniProt O75762, whole entry R3C/R58T/K186N: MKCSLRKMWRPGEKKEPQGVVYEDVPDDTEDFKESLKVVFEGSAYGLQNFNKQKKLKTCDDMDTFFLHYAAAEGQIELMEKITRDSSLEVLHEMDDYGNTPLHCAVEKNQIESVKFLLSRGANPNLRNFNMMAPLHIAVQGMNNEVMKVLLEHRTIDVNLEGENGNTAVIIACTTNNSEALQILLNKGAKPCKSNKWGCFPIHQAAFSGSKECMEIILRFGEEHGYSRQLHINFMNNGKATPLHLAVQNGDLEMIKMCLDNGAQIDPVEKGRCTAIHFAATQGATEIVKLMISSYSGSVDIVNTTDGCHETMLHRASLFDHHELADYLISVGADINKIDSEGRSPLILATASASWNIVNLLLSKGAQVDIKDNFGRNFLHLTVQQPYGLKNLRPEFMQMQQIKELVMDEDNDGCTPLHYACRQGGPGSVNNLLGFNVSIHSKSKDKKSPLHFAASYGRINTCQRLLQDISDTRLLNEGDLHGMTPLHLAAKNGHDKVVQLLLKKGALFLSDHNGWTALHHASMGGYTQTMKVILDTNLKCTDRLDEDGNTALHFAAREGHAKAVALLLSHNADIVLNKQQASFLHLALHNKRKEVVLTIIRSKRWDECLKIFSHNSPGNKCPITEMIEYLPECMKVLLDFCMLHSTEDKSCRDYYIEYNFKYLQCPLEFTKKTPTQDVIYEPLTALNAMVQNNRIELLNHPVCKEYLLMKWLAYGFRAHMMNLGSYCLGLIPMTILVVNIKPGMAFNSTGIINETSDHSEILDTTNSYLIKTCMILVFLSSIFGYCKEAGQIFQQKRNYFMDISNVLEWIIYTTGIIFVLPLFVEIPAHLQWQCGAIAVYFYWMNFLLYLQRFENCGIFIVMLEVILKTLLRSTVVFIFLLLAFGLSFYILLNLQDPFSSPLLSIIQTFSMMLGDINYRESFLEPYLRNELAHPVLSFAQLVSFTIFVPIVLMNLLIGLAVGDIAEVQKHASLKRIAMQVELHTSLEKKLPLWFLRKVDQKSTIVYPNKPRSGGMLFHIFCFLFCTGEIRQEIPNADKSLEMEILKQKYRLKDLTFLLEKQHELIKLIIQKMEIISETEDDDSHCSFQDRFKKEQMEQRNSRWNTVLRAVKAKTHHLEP

Biological target: T1, human TRPA1 (Homo sapiens, UniProt O75762, K186N/R3C/R58T)
T1 construct: expressed in transfected cells; pcDNA3 control cells
Test: Intracellular calcium (Fluo-4, FLIPR) activation of TRPA1 cells by GRAS compounds;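 note: TRPA1-expressing cells, fluorescence read on a FLIPR Tetra (ex 488 nm, em 514 nm) every 2 s for 10 min after compound addition, baseline subtracted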
Assay type: cell-based
Settings: Table 1(c); 1 mM; relative to AITC 30 μM

**Q.** How did the “A1 activation, % of agonist value” turn out when Ammonium carbonate was run?
**A.** 52.81%
